Results: patent publication US9018255B2, “Esters of (acyloxymethyl)acrylamide, a pharmaceutical composition containing them, and their use as inhibitors of the thioredoxin—thioredoxin reductase system” (Instytut Chemii Organicznej Polskiej Akademii Nauk, priority 2010, dated 2015)

Sequences of proteins named here, by UniProt entry; tags and fusion partners are left off. A change or cut given only in a name is not applied to a line headed by its entry.
UniProt P10599: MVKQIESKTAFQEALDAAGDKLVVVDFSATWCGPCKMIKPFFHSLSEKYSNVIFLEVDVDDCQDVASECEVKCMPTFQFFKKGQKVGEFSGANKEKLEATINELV

Target: human recombinant thioredoxin (Homo sapiens (Human), UniProt P10599)
Test: Thioredoxin activity, insulin reduction / DTNB assay with recombinant enzymes
Type: biochemical
Details: for IC50: 37° C., 30 min, 0.25 μM thioredoxin, 0.325 μM thioredoxin reductase, read-out: IC50 of thioredoxin inhibition; for thioredoxin IC50, times lower than for PX-12: ratio to PX-12
Method: The method of determining thioredoxin activity is based on the reduction of insulin by thioredoxin. Thioredoxin is reconstituted is by thioredoxin reductase, with NADPH. The resulting free thiol —SH groups react with 5,5′-dithiobis-2-nitrobenzoic acid (DTNB). The termination of the reaction results in the formation of a […] colour. The intensity of colouration is determined spectrophotometrically at 412 nm and this corresponds to the number of reduced sulfahydryl groups. The reaction was performed at 37° C. over 30 min. in a buffer containing 50 mM Tris-HCl and 20 mM EDTA at a pH of 7.6. The substrate concentrations used were: 0.25 μM human recombinant thioredoxin and 0.325 μM rat recombinant thioredoxin reductase (IMCO Corporation Ltd AB, Sweden) and 316 μM of insulin, 0.8 μM NADPH, 8 mM DTNB (Sigma Aldrich).

| IC50 | thioredoxin IC50, times lower than for PX-12 | SMILES | selectivity as thioredoxin inhibitor in comparison to PX-12 (from Tables 1, 2 and 3) |
| --- | --- | --- | --- |
| 3.5 µM | about 5 times | C=C(COC(=O)c1c(C(F)(F)F)cccc1C(F)(F)F)C(=O)N[C@H](CC(C)C)C(=O)NCC(=O)OCC [Compound D-3a, (R)-2-((1-((2-ethoxy-2-oxoethyl)amino)-4-methyl-1-oxopentan-2-yl)carbamoyl)allyl 2,6-bis(trifluoromethyl)benzoate] | – |
| 2.8 µM | about 5 times | C=C(COC(=O)c1c(C(F)(F)F)cccc1C(F)(F)F)C(=O)N[C@@H](CC(C)C)C(=O)NCC(=O)OCC [Compound L-3a, (S)-2-((1-((2-ethoxy-2-oxoethyl)amino)-4-methyl-1-oxopentan-2-yl)carbamoilo)allyl 2,6-bis(trifluoromethyl)benzoate] | – |

| SMILES | IC50 | thioredoxin IC50, times lower than for PX-12 | selectivity as thioredoxin inhibitor in comparison to PX-12 (from Tables 1, 2 and 3) |
| --- | --- | --- | --- |
| C=C(COC(=O)c1c(C(F)(F)F)cccc1C(F)(F)F)C(=O)NC(CC(C)C)C(=O)NCC(=O)OCC (racemic) [Compound 3a, 2-((1-((2-ethoxy-2-oxoethyl)amino)-4-methyl-1-oxopentan-2-yl)carbamoyl)allyl 2,6-bis(trifluoromethyl)benzoate] | 3.2 µM | about 5 times | considerably more selective |
